Legend:
[1] = target: T1, Prolactin-releasing peptide receptor (Homo sapiens, UniProt P49683); experiment: Displacement of [3H]-PrRP from human GPR10 receptor expressed in HEK293 cell membranes incubated for 90 mins by liquid scintillation counting method
T1 sequence (P49683 whole entry): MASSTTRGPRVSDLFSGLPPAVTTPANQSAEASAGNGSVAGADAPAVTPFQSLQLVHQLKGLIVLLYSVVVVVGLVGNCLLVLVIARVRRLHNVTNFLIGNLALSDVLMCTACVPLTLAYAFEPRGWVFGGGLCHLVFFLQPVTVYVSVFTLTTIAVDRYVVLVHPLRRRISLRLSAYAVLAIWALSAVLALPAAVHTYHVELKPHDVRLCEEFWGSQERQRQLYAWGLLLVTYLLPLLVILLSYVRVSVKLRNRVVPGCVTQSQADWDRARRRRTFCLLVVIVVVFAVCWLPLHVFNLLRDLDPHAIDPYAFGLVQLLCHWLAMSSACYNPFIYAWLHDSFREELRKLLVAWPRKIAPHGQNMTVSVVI

[2] = target: T1, Prolactin-releasing peptide receptor; experiment: Antagonist activity against human GPR10 receptor expressed in HEK293 cells assessed as inhibition of PrRP-induced intracellular calcium mobilization pre-incubated for 15 mins before PrRP addition by Fluo-8 dye based fluorescence imaging plate reader method; type: functional, cell-based

Row | Compound | Ki [1] [nM] | IC50 [2] [nM]
1 | COc1cc(Cl)ccc1C(=O)N1CCc2nc(N[C@@H](C)c3ccc(C(F)(F)F)cc3)n(OC)c(=O)c2C1 | 18 | –
2 | COn1c(N[C@@H](C)c2ccc(C(F)(F)F)cc2)nc2c(c1=O)CN(C(=O)c1ccc3c(c1)CCC(=O)N3C)CC2 | 16 | –
3 | COn1c(N[C@@H](C)c2ccc(C(F)(F)F)cc2)nc2c(c1=O)CN(C(=O)c1cc3cc(Cl)ccc3o1)CC2 | 12 | 824
4 | COn1c(N[C@@H](C)c2ccc(C(F)(F)F)cc2)nc2c(c1=O)CN(C(=O)c1cnc3ccccc3c1)CC2 | 8 | 286
5 | COn1c(N[C@@H](C)c2ccc(C(F)(F)F)cc2)nc2c(c1=O)CN(C(=O)c1ccc(C#N)cc1)CC2 | 2 | 140
6 | COn1c(N[C@@H](C)c2ccc(C(F)(F)F)cc2)nc2c(c1=O)CN(C(=O)c1ccc(Cl)c(C)c1)CC2 | 20 | 2220
7 | CCOc1ccc(C(=O)N2CCc3nc(N[C@@H](C)c4ccc(C(F)(F)F)cc4)n(OC)c(=O)c3C2)cc1 | 9 | 1280

From ChEMBL document CHEMBL3727366, “Heterocyclic compounds for the treatment of stress-related conditions” (2013)
